Source: patent publication US4668677A, “4-phenylphthalazine derivatives, their preparation and their use as pharmaceuticals” (Mitsubishi Chemical Industries Limited, priority 1984, dated 1987)

Assay: in vivo
Conditions: rat, po, rats

**Q.** With `CCCNc1nnc(-c2ccccc2)c2ccccc12` [compound 1] as the compound, how does the LD50 read?
**A.** Its LD50 is 522 mg/kg.
